## Antibody variant affinities, Ab-14 light chain, assay B

From the AlphaSeq antibody data of Li et al. 2023 (doi:10.1038/s41467-023-39022-2), copy in the FLAb collection.

Target peptide (SARS-CoV-2 spike, HR2 region): PDVDLGDISGINAS

Each scFv is VH, a 15-residue (Gly4Ser)3 linker, VL, as in the parent Ab-14, and differs from it in the CDRs of the light chain only.
VH: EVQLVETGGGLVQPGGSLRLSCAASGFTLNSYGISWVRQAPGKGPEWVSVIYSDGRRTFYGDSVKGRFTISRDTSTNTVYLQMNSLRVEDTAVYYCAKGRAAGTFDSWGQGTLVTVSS
VL: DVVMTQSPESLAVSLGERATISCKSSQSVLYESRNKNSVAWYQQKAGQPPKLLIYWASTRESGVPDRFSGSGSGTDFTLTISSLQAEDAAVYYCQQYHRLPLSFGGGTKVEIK

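These sequences belong to a second round, designed from the earlier measurements on random variants of the parent. Their group label is 14L_En_HC (En: ensemble of fine-tuned language models; HC: hill climbing; a sequence that several methods proposed may carry one label only). AlphaSeq pools MATa yeast showing the antibodies with MATalpha yeast showing the peptide. The frequency of each diploid, read from paired DNA barcodes, reflects how well the two displayed proteins bind. The ratio of observed to expected reads was calibrated, replicate by replicate, on BCL2-family standards whose Kd was known from biolayer interferometry. The assay was run in six technical replicates.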

The parent's light chain CDRs are KSSQSVLYESRNKNSVA, WASTRES, QQYHRLPLS; each variant's own CDRs replace them letter for letter. Affinities are written as log10 Kd with Kd in nM; a lower number is a better binder. "ND" marks a missing value. The strain was present, yet no cells mated with the target were sequenced in that replicate, which points to weak or no binding.

| CDR-L1 | CDR-L2 | CDR-L3 | log10 Kd (nM) by replicate | control signals |
|---|---|---|---|---|
| SLMQVGGYESNNHDSIA | DLRTRES | QQYHRLPLS | 0.78 / 0.90 / 0.46 / 0.61 / 0.67 / 1.58 | 1/18 (2.09) |
| MISDLTMYGSRNKNSVA | DLSNRGS | QQYHRLPLS | 0.71 / 0.47 / 0.03 / 0.10 / 0.19 / 0.43 | 0/18 |
| KLRQLMHIESFNKNNVA | EMTTREN | QSYDRLPLS | 0.90 / 1.13 / 1.29 / 1.46 / 1.28 / 1.52 | 0/18 |
| KLYQSMGYLSRNKNSIA | DMDRREN | QQYHRLPLS | 0.10 / 0.04 / -0.05 / 0.00 / 0.00 / 0.19 | 1/18 (2.03) |
| KLPQMTMQESVSKNSVA | ELSTRGS | QQYHRLPLS | 0.25 / 0.34 / -0.14 / -0.07 / -0.23 / 0.23 | 0/18 |
| KISQMYRYEQQNSSSIA | EANTREE | QSYHRLPLS | 1.47 / 1.61 / 1.31 / 2.09 / 1.18 / 2.30 | 0/18 |
| TISQSAQMESHNKNSVA | DLNLRGS | QQYDRLPLS | 2.32 / 0.81 / 2.11 / 0.82 / 2.24 / 1.19 | 0/18 |
| KLGSSTRFESSNKASIA | DNSTREN | QQYHRLPLS | 1.18 / 1.21 / 1.23 / 1.16 / 1.90 / ND | 1/18 (1.70) |
| SIYDATGMESRNKNPIA | DVSTRPN | QQYHRLPLS | 0.13 / -0.07 / -0.03 / -0.24 / -0.15 / 0.15 | 3/18 (3.25) |
| IFSQSVLMGQMTRNSVA | QASTRFN | QQYDRLPLI | 1.24 / 0.83 / 1.74 / 0.65 / 3.51 / 1.10 | 1/18 (2.24) |
| TLSHSTDLESVHKNNIA | DLMTRES | QQYDRLPLS | 0.38 / 0.13 / 0.46 / 0.39 / 0.27 / 0.45 | 0/18 |
| MISGSVMSESRLKNNVA | QTTTRES | QQYDRLPLS | -0.19 / 0.19 / 0.48 / 0.48 / -0.03 / 0.57 | 0/18 |
| TLGQVTMVESYNKNSVA | QASTREE | QDYHRLPLS | ND / ND / ND / 2.80 / ND / 1.98 | 1/18 (2.59) |
| MVGQGLMGESRAKNSIA | QASTRFD | QQYHRLPLI | 0.88 / 0.55 / 1.45 / 0.73 / 0.42 / 0.25 | 0/18 |
| ILSQMLWTAGNKHNSVA | QANNRES | QQYHRLPLS | ND / 1.86 / ND / ND / 1.71 / 1.75 | 0/18 |
| KLRMMTGYESRNKDSIA | DNSTRGR | QQYHRLPLS | 0.98 / 1.25 / 1.68 / 1.67 / 1.61 / 1.76 | 0/18 |
| KISMSTTFESRNKNSVA | ENSTRES | QSYHRLPLS | ND / ND / ND / 3.37 / ND / 3.52 | 2/18 (2.07) |
| KLGAATRFESSNKANIA | NNSTREE | QQYHRLPLS | 0.99 / 1.15 / 1.13 / 1.01 / 1.62 / 0.99 | 0/18 |
| KVNGLMNIEQMNSKSVA | QSQTREN | QQYHRLPLS | 0.62 / 0.42 / 0.49 / 0.14 / 0.38 / 0.52 | 2/18 (3.27) |
| KIGGVTNGMSRSKNSVA | EQSTRED | QQYNRLPLS | 0.66 / 0.76 / 0.38 / 0.69 / 0.45 / 0.49 | 0/18 |
| KLSMVTNQEHKVKNSIA | EMVTREK | QQYDRLPLI | 0.76 / 0.58 / 0.73 / 0.02 / 0.50 / 0.68 | 0/18 |
| SLAESAHMESRNKNSVA | DNTTRES | QHYDRLPLS | 3.07 / 4.19 / 3.29 / 3.31 / 2.45 / ND | 2/18 (2.80) |
| KIGGVTNGISRLKNSVA | EQSTRED | QQYNRLPLS | 0.49 / 0.13 / 0.10 / 0.24 / 0.07 / 0.36 | 1/18 (2.06) |
| KISGMYQKESKNKNSVA | EMVNREE | QQYDRLPLS | 0.57 / 0.46 / 0.37 / 0.35 / 0.52 / 0.39 | 1/18 (2.68) |
| TLTQSYLMESHNKNSVA | DLSTRGS | QQYHRLPLS | 1.59 / 1.50 / 0.90 / 0.92 / 1.05 / 1.20 | 1/18 (2.28) |
| KVSEMMAFLQSNRNNVA | DNSTRGS | QQYHRLPLS | 1.34 / 1.33 / 0.92 / 0.92 / 0.29 / 0.89 | 3/18 (2.32) |
| KLSAMTYRESMHENNVA | DLRARVE | QQYHRLPLS | 0.09 / -0.03 / 0.35 / 0.02 / -0.05 / 0.11 | 0/18 |
| KLYQSMGYLSRNKNSIA | DMERREN | QQYHRLPLS | 0.69 / 0.33 / 0.60 / 0.48 / 0.32 / 0.47 | 1/18 (1.81) |
| MISDLMMYGSRNKNPIA | NASTREY | QQYHRLPLE | 1.28 / 0.95 / 0.75 / 0.55 / 0.80 / 0.80 | 2/18 (3.33) |
| TISQSWFIESKNKNNVA | EMTTREN | QDYDRLPLS | -0.16 / 0.49 / 0.52 / 0.58 / 0.58 / -0.26 | 0/18 |
| TIGGVTNGISRSKNSVA | EQSTRED | QQYDRLPLS | 0.83 / 0.53 / 0.37 / 0.41 / 0.34 / 0.78 | 2/18 (2.78) |
| KLRMLTVTGGYFKNSVA | QAETREN | QSYHRLPLA | 1.82 / 1.19 / ND / 2.08 / 1.48 / 1.02 | 2/18 (3.02) |
| HISQSFMSESVWRNNIA | HQSTREQ | QQYDRLPFS | 0.34 / 0.23 / -0.06 / -0.01 / 0.07 / 0.50 | 0/18 |

Repeated from above, the 5 best binders with a signal in all replicates:

| CDR-L1 | CDR-L2 | CDR-L3 | log10 Kd (nM) by replicate | control signals |
|---|---|---|---|---|
| SIYDATGMESRNKNPIA | DVSTRPN | QQYHRLPLS | 0.13 / -0.07 / -0.03 / -0.24 / -0.15 / 0.15 | 3/18 (3.25) |
| KLYQSMGYLSRNKNSIA | DMDRREN | QQYHRLPLS | 0.10 / 0.04 / -0.05 / 0.00 / 0.00 / 0.19 | 1/18 (2.03) |
| KLPQMTMQESVSKNSVA | ELSTRGS | QQYHRLPLS | 0.25 / 0.34 / -0.14 / -0.07 / -0.23 / 0.23 | 0/18 |
| KLSAMTYRESMHENNVA | DLRARVE | QQYHRLPLS | 0.09 / -0.03 / 0.35 / 0.02 / -0.05 / 0.11 | 0/18 |
| HISQSFMSESVWRNNIA | HQSTREQ | QQYDRLPFS | 0.34 / 0.23 / -0.06 / -0.01 / 0.07 / 0.50 | 0/18 |

Of ten entries with the parent sequence, four were seen in most replicates (averages 0.34 to 2.37), three in one and three in none, so single entries are noisy. As a blank, each scFv also met three strains without target: over all light chain designs, 4% of these pairings were detected, typically at 2.64 and seldom below 1.59. Also given: how often the same scFv was detected with the empty control strains, with their mean in brackets. The authors' rule: three or more of the six replicates give a measured affinity, fewer mean a poor binder. A sequence measured in both rounds can read differently, since the two assays cover different ranges.